Earlier results, collected in patent publication US5366980A, “Use of dextromethorphan and an oxidase inhibitor to treat dermatitis” (priority 1993, dated 1994).

System: debrisoquin hydroxylase (sparteine monooxygenase)
Conditions: Inaba et al 1985; cited from earlier work

CN(C)CCOC(c1ccccc1)c1ccccc1 [diphenhydramine]
In vitro activity in inhibiting debrisoquin hydroxylase: significant in vitro activity
